Patent US20230233696A1, “TRIANTENNARY N-ACETYLGALACTOSAMINE MODIFIED HYDROXYL POLYAMIDOAMINE DENDRIMERS AND METHODS OF USE THEREOF” (Ashvattha Therapeutics, Inc., priority 2019, published 2023)

Target: human angiotensin II AT1 receptor (Homo sapiens, UniProt P30556)
Assay: human angiotensin II AT1 receptor (antagonist radioligand) binding assay
Conditions: [125I][Sar1-Ile8] angiotensin-II radioligand, cell membrane homogenates
Protocol: Cell membrane homogenates (8 µg protein) are incubated for 120 min at 37° C. with 0.05 nM [125I][Sar1-Ile8] angiotensin-II in the absence or presence of the test compounds in a buffer containing 50 mM Tris-HCl (pH 7.4), 5 mM MgCl2, 1 mM EDTA and 0.1% BSA. Nonspecific binding is determined in the presence of 10 µM angiotensin II. Following incubation, the samples solution are filtered rapidly under vacuum through glass fiber filters (GF/B, Packard) presoaked with 0.3% PEI and rinsed several times with ice-cold 50 mM Tris-HCl using a 96-sample cell harvester (Unifilter, Packard). The filters are dried then counted for radioactivity in a scintillation counter (Topcount, Packard) using a scintillation cocktail (Microscint 0, Packard).
The results are expressed as a percent inhibition of the control radioligand specific binding. Saralasin is used as the standard reference compound, which is tested in each experiment at several concentrations to obtain a competition curve from which its IC50 is calculated.

CCCc1nc2c(C)cc(-c3nc4ccccc4n3C)cc2n1Cc1ccc(-c2ccccc2C(=O)O)cc1 [Telmisartan, reference compound]
Kd: 3 nM
